Results reported in article PMC12621184, “Synthesis and Pharmacological Characterization of Nociceptin/Orphanin FQ Dimeric Ligands” (Journal of Medicinal Chemistry, 2025).

The chains behind the UniProt entries cited, without tags or fusion partners.
UniProt P35372, whole entry: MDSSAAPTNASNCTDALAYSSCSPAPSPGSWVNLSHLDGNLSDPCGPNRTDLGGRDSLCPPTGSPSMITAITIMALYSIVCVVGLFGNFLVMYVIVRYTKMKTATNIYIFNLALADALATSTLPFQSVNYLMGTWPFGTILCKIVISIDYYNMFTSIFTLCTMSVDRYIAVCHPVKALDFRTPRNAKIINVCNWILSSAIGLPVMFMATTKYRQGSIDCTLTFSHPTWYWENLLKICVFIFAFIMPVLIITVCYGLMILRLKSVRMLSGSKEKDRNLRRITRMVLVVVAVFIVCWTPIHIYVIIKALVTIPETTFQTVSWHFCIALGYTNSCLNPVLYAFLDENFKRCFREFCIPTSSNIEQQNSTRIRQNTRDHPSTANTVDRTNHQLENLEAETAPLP

Tests used:
human δ opioid receptor = biological target: T1, human δ opioid receptor (Homo sapiens, UniProt P41143); experiment: Calcium mobilization assay, CHO cells with δ receptor and chimeric G protein; format: cell-based; details: standard agonist
T1 construct: expressed in transfected cells
Protocol: (§1) Chinese hamster ovary (CHO) cells stably coexpressing the human NOP, μ, or κ opioid receptors and the Gαqi5 protein or the human δ and the GαqG66Di5 protein were used in this assay. , Cells were cultured in DMEM/F-12 (1:1) medium supplemented with 10% FBS, 2 mM L-glutamine, […], 100 IU/mL penicillin, and 100 IU/mL streptomycin. Cells were maintained at 37 °C in a humidified atmosphere with 5% CO2 and were seeded at 50 000 cells/well into 96-well black, clear-bottom plates 24 h before test. Loading for 45 min with a solution consisting of HBSS supplemented with 2.5 mM probenecid, 3 μM Fluo-4 AM, and 0.01% pluronic acid ensures the calcium-sensitive dye (Fluo-4) reaches the needed concentration inside the cell, while the exchange of the solution with 100 μL/well of buffer consisting of HBSS with 20 mM HEPES, 2.5 mM probenecid, and 500 μM Brilliant Black allows for fluorescence background to decrease. Serial dilutions of ligands were prepared in HBSS buffer with 20 mM HEPES and 0.02% bovine serum albumin (BSA) to minimize the ligands’ stickiness to plasticware. The automated microplate reader FlexStation II (Molecular Devices, CA, US) was employed at 37 °C to detect changes in fluorescence intensity. The effects of all compounds were expressed as the maximum change in percentage over the baseline fluorescence measured in samples treated with vehicles. […]

human μ opioid receptor = biological target: T2, human μ opioid receptor (Homo sapiens, UniProt P35372); experiment: Calcium mobilization assay, CHO cells with μ receptor and chimeric G protein; format: cell-based; details: standard agonist
T2 construct: expressed in transfected cells
Protocol: as §1

Substance: [D-Pen^2,D-Pen^5]enkephalin [DPDPE]
- stimulation of calcium release at δ receptor (in words) (human δ opioid receptor): robust concentration-dependent stimulation of calcium release

Substance: Dermorphin [reference compound]
- stimulation of calcium release at μ receptor (in words) (human μ opioid receptor): robust concentration-dependent stimulation of calcium release
